Source: ChEMBL document CHEMBL5532641, “MNK, mTOR or eIF4E-selecting the best anti-tumor target for blocking translation initiation” (Eur J Med Chem, 2023)

Protein sequences, listed by entry. Tags and fused reporters are not part of them. Lines headed by an entry give the natural chain unless they say otherwise; changes in a name come on top.
UniProt P48736: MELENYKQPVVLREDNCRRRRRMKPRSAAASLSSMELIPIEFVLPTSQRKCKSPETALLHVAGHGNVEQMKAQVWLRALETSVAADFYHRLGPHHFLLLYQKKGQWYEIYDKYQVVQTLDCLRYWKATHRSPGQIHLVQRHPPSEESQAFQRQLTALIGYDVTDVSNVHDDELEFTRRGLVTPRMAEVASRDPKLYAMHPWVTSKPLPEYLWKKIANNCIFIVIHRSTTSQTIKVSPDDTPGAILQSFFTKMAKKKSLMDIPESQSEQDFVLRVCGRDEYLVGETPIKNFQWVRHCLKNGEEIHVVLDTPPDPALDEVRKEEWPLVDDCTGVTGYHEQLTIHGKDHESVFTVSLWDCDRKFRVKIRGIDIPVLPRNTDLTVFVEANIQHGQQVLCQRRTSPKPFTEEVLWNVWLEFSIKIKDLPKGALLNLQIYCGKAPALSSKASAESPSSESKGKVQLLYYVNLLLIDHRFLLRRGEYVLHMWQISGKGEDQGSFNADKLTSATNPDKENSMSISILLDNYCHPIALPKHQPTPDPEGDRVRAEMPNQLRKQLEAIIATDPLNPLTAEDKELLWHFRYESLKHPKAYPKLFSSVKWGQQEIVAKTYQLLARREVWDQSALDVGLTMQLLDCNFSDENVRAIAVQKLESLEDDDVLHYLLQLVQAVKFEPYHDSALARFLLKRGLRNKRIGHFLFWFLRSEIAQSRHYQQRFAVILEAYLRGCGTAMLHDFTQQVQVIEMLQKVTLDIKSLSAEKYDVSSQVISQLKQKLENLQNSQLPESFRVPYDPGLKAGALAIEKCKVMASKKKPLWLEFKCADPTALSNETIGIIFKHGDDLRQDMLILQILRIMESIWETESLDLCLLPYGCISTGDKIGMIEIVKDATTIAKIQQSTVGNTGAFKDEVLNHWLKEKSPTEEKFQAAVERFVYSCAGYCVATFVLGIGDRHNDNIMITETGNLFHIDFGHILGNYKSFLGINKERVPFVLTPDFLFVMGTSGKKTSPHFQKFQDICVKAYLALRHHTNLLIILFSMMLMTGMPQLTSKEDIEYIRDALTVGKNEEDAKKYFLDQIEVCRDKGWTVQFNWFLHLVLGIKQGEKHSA

Target: Phosphatidylinositol 4,5-bisphosphate 3-kinase catalytic subunit gamma isoform (Homo sapiens, UniProt P48736)

SMILES: CC(C)n1nc(-c2ccc3oc(N)nc3c2)c2c(N)ncnc21 [SAPANISERTIB]
- Ki: 165 nM
